Measured values published in PubChem BioAssay (NCI).
Only a part is listed here, and it is no random draw. Some structures show a salt or complex split into parts, the way the source records it. Some compounds were tested as several samples or in several runs, with calls that do not always agree. Calls of active or inactive are those of the source. Rule as the data show it: active = growth inhibition above about 70%; inactive = the rest.

Assay: NCI Yeast Anticancer Drug Screen. Data for the rad50EPP+ strain (AID 151);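 also: 0% = growth of vehicle-treated control cultures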
Details: S. cerevisiae rad50 mutant strain, hits give high values
Experimental: Growth inhibition of yeast strains with defined genetic alterations is measured as a screen for potential anti-cancer activity. Selected strains with alterations in DNA damage repair or cell cycle control were exposed to compounds and growth inhibition was measured relative to vehicle treated controls. The strain used in this assay is rad50EPP+

| SMILES | growth inhibition (at 1.2 µM) | growth inhibition (at 3.7 µM) | growth inhibition (at 11.0 µM) | growth inhibition (at 33.0 µM) | growth inhibition (at 100.0 µM) |
| --- | --- | --- | --- | --- | --- |
| [Au+].[Au+].c1ccc([PH+](c2ccccc2)c2ccccc2)cc1.c1ccc([PH+](c2ccccc2)c2ccccc2)cc1.n1n[n-]c(-c2nnn[n-]2)n1 | inactive: 6% | inactive: 55% | active: 98% | active: 98% | active: 98% |
| Cc1ccc2ccc3ccc4ccccc4c3c2c1.O=C1c2cc([N+](=O)[O-])ccc2-c2c1cc([N+](=O)[O-])cc2[N+](=O)[O-] | inactive: 1% | inactive: 6% | inactive: 14% | inactive: 23% | inactive: 40% |
| Cc1c2ccccc2cc2ccccc12.O=[N+]([O-])c1cc([N+](=O)[O-])c(O)c([N+](=O)[O-])c1 | inactive: 2% | inactive: 18% | inactive: 68% | active: 93% | active: 96% |
| [Au+].[N-]=[N+]=N.c1ccc([PH+](c2ccccc2)c2ccccc2)cc1 | inactive: 33% | active: 97% | active: 97% | active: 92% | active: 87% |
| O=[N+]([O-])C(F)(COCC(O)CO)[N+](=O)[O-] (stereo not given) | inactive: -6% | inactive: 3% | inactive: 31% | active: 75% | active: 92% |
| [Au].[C-]#N.[C-]#N | inactive: 5% | inactive: 14% | inactive: 13% | inactive: 32% | inactive: 53% |
| COc1ccccc1N.O=[N+]([O-])c1cc([N+](=O)[O-])cc([N+](=O)[O-])c1 | inactive: 0% | inactive: 14% | active: 77% | active: 99% | active: 99% |
| Nc1ccccc1.O=[N+]([O-])c1cc([N+](=O)[O-])cc([N+](=O)[O-])c1 | inactive: -3% | inactive: 19% | active: 71% | active: 99% | active: 99% |
